Bioassay records: PubChem BioAssay, National Center for Advancing Translational Sciences (NCATS)
TDP1 cell CPT: growth inhibition of DT40 Tdp1-/-;hTDP1 cells with camptothecin (screen for TDP1 inhibitors) | Potency, µM (top dose mostly 46.2 µM), for the others: at the top dose activity change, negative = growth inhibition, actives largely listed as inhibitors | chicken DT40 Tdp1-/-;hTDP1 cells + 20 nM CPT, ATP luminescence, 48 h | actives 12% (n = 420,000) | AID 686979; note: potency is the fitted concentration of half-maximal effect; % is set by controls: 0 for no effect and ±100 for the full control effect; nearly all actives have a fitted effect of over 55% in size
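Chicken DT40 Tdp1-/- cells complemented with human TDP1, 400 cells/well, exposed to compounds plus 20 nM camptothecin for at least 48 h at 37 C; viability read as ATP content by CellTiter-Glo luminescence.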
uPA surface inh: inhibitors of cell surface uPA generation. cell surface uPA generation assay, qHTS. Potency, µM (highest dose often 38.3 µM), for inactives: top-dose activity change, negative = inhibition, hits mostly inhibitors. actives 0.31% (n = 330,000); active = well fitted inhibition curve with a large enough effect; inconclusive = small, poorly fitted or top-dose-only effect; inactive = no such curve, though single readings can be large or run the other way; tested in mouse RAW 264.7 cells; note: potency is the fitted concentration of half-maximal effect; % is set by controls: 0 for no effect and ±100 for the full control effect; nearly all actives have a fitted effect of over 55% in size
TDP1 inh: blocks human tyrosyl-DNA phosphodiesterase 1; Q9NUW8; recombinant TDP1, AlphaScreen DNA substrate cleavage; Potency, µM (highest dose often 130 µM), for the others: at the top dose activity change, negative = inhibition, hits mostly inhibitors; actives 0.28% (n = 350,000); AID 485290; note: potency is the fitted concentration of half-maximal effect; % is set by controls: 0 for no effect and ±100 for the full control effect; nearly all actives have a fitted effect of over 40% in size
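Tdp1 1 nM final; 15 min RT w/ cpd; substrate 15 nM, 5 min; beads 10 ug/ml, 10 min; AlphaScreen read. Neg ctrl: no enzyme.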
miR-21 reporter: miR-21 reporter, rising signal; HeLa miR-21 FLuc reporter, luciferase, 48 h; Potency, µM (titrated, usually from 38.3 µM), without a hit: top-dose reporter change, positive = more light; AID 2288; 340,000 tested, under 10 active; active = well fitted rising curve with a large enough effect; inconclusive = small, poorly fitted or top-dose-only effect; inactive = no such curve, though single readings can be large or run the other way;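 further: % of control where 0% means no effect; miR-21 action dims this reporter so a rising signal means less miR-21 action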
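Compounds were titrated across several concentrations (up to approximately 40 uM) and incubated 48 hours with HeLa miR-21-FLuc reporter cells (miR-21 target sequence downstream of FLuc, endogenous miR-21). Readout was firefly luciferase luminescence after lytic detection reagent.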
TDP1 cell noCPT: qHTS for Inhibitors of human tyrosyl-DNA phosphodiesterase 1 (TDP1): qHTS in cells in absence of CPT; actives 15% (n = 420,000); AID 686978, 2013; DT40 Tdp1-/- hTDP1 cells, no CPT, ATP luminescence, 48 h; Potency, µM (titrated, usually from 46.2 µM), without a hit: at the highest dose activity change, negative = growth inhibition, most hits filed as inhibitors; note: potency is the fitted concentration of half-maximal effect; % is set by controls: 0 for no effect and ±100 for the full control effect; nearly all actives have a fitted effect of over 55% in size
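Readout: luminescence from CellTiter-Glo after 30 min in the dark at RT. Cells: DT40 Tdp1-/- with stable hTDP1, 400/well. Exposure: compounds alone, ≥48 hr, 37 °C.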
* hit, by the source's call; ? = inconclusive; . = no result; [ ] = remark or other dose. Rows were chosen to be rich in hits. Some 16% of all compounds tested hit in one or more screens of this group. Unless noted, calls come from the whole dose curve; as a rule, active = well fitted curve in the direction sought with a large enough effect; inconclusive = small, poorly fitted or top-dose-only effect, or another doubt; inactive = no such curve, though single readings can be large; an effect the other way counts as inactive or inconclusive.

SMILES	TDP1 cell CPT	uPA surface inh	TDP1 inh	miR-21 reporter	TDP1 cell noCPT
O=C(Nc1scc(-c2ccc(Br)cc2)c1C(=O)O)c1ccccc1F	?	-5%	.	.	16µM*
CC(C)c1nc(SCC(=O)N2c3ccccc3CC2C)c2ccccc2n1 (configuration not stated)	?	-4%	0%	16%	?
CSc1nccc(-c2cc(Cl)sc2Cl)n1	?	0%	-1%	-8%	?
CCC1S/C(=N/N=C/c2ccco2)N(Cc2ccc(F)cc2)C1=O (configuration not stated)	?	9%	.	5%	?
CC1S/C(=N/N=C/c2ccco2)N(Cc2ccccc2)C1=O (configuration not stated)	?	?	0%	-25%	9.2µM*
C[C@H]1CN([C@@H](C)CO)C(=O)c2cc(Br)cnc2O[C@@H]1CN(C)C(=O)C1CCC1	-27%	.	.	.	?
CCOc1cc(C=O)cc(Cl)c1OCC(N)=O	?	3%	5%	1%	18µM*
CCOc1cc(CO)cc(Br)c1OCC(N)=O	-4%	9%	2%	-1%	1%
CC(C)(C)NC(=O)CN1CCN(C(=O)CCl)CC1	23µM*	-6%	-11%	20%	21µM*
CCOc1ccc(/C(CCC(=O)O)=N/NC(=O)c2cccc(S(=O)(=O)Nc3ccccc3OC)c2)cc1	-6%	0%	1%	.	-12%
COc1cccc(CNC(=O)C2CCCN(S(=O)(=O)c3c(C)noc3/C=C/N(C)C)C2)c1 (configuration not stated)	-12%	-6%	11%	0%	-31%
O=C1[C@@H]2[C@@H]3C[C@@H]([C@H]4ON=C(c5ccc(Cl)cc5)[C@@H]34)[C@@H]2C(=O)N1C1CCCCC1	16µM*	-4%	0%	-2%	9.2µM*
CC(C)CN(C(=O)CSc1nn(-c2ccc(Cl)cc2)c(=S)s1)C1CCS(=O)(=O)C1 (configuration not stated)	?	-6%	?	0%	18µM*
CC(C)CN(C(=O)CSc1nnc2ccccn12)C1CCS(=O)(=O)C1 (configuration not stated)	-9%	-6%	-2%[56.1 µM]	.	4%
Cc1nnc(SCC(=O)N(CC(C)C)C2CCS(=O)(=O)C2)s1 (configuration not stated)	-3%	8%	0%	.	10%
Cc1ccc(-n2ccnc2SCC(=O)N(CC(C)C)C2CCS(=O)(=O)C2)c(C)c1 (configuration not stated)	?	0%	-3%	-15%	18µM*
C=C1C(=O)O[C@@H]2[C@H]1[C@@H](OC(=O)/C(C)=C/C)C/C(C)=C\C(=O)/C=C(\C)[C@@H]2O	1.5µM*	?	-1%	?	2.1µM*
CCc1ccc(OCCn2c(C3CC(=O)N(Cc4ccc(F)cc4)C3)nc3ccccc32)cc1 (configuration not stated)	21µM*	.	3%	24%	12µM*
Cc1ccc(OCCn2c(C3CC(=O)N(Cc4ccc(F)cc4)C3)nc3ccccc32)c(C)c1 (configuration not stated)	26µM*	.	6%	?	21µM*
Nc1ccn([C@@H]2O[C@H](CO)[C@@H](O)[C@H]2O)c(=O)n1	2%	-3%	10%[56.1 µM]	.	-1%
Nc1ccn([C@@H]2O[C@H](CO)[C@@H](O)C2O)c(=O)n1 (some centres not stated)	0.037µM*	-87%	-3%	8%	0.041µM*
Nc1ccn([C@@H]2O[C@H](CO)[C@@H](O)C2(F)F)c(=O)n1	0.0094µM*	.	.	.	0.0094µM*
Nc1ccn([C@@H]2O[C@H](COS(=O)(=O)O)[C@@H](O)[C@H]2O)c(=O)n1	9.2µM*	0%	2%	.	1.8µM*
Nc1ccn([C@@H]2CC[C@H](CO)O2)c(=O)n1	.	.	3%[21 µM]	.	.

Just TDP1 inh (two entries from above):
| smiles | TDP1 inh |
| --- | --- |
| Nc1ccn([C@@H]2CC[C@H](CO)O2)c(=O)n1 | 3%[21 µM] |
| CCc1ccc(OCCn2c(C3CC(=O)N(Cc4ccc(F)cc4)C3)nc3ccccc32)cc1 (configuration not stated) | 3% |

(listing goes on)
SMILES	TDP1 cell CPT	uPA surface inh	TDP1 inh	miR-21 reporter	TDP1 cell noCPT
Nc1ccn(C2OC(COC(=O)C34CC5CC(CC(C5)C3)C4)C(O)C2O)c(=O)n1 (configuration not stated)	0.052µM*	-9%	.	.	0.37µM*
Cc1ccc2[nH]c3c(=O)[nH]ncc3c2c1	-2%	6%	.	-25%	-6%
COC(=O)c1c(NC(=O)/C(C#N)=C/c2ccccc2)sc2c1CCC2	8%	.	2%[2.28 µM]	-2%	2%
CCCOc1ccc(C2CC(=O)Nc3c2c(C)nn3-c2nncc(-c3cccc(OC)c3)n2)cc1OC (configuration not stated)	3%	.	9%	-27%	-7%
CC(=O)OCC1OC(n2ccc(=O)[nH]c2=O)C(O)C1O (configuration not stated)	2%	11%	4%	-2%	-21%
O=c1[nH]cnc2c1ncn2[C@@H]1O[C@H](COS(=O)(=O)O)[C@@H](O)[C@H]1O	3.7µM*	0%	1%	.	?
O=c1[nH]cnc2c1ncn2[C@@H]1O[C@H](CO)[C@@H](O)[C@H]1O	-9%	3%	5%	2%	17%
O=c1ncccn1[C@@H]1O[C@H](CO)C(O)[C@@H]1O (some centres not stated)	.	.	3%	.	.
O=c1ccn([C@@H]2O[C@H](COS(=O)(=O)O)[C@@H](O)[C@H]2O)c(=O)[nH]1	5.2µM*	-2%	2%	.	4.1µM*
Cc1cc(S(=O)(=O)NC[C@H]2O[C@@H](n3ccc(N)nc3=O)[C@H](O)[C@@H]2O)c(C)s1	-11%	.	.	.	-20%
CCCCCCCCCCCCCCCCCCCCCC(=O)Nc1ccn([C@@H]2O[C@H](CO)[C@@H](O)[C@@H]2O)c(=O)n1	2.7µM*	.	.	.	3.3µM*
Nc1ccn(C2OC(CCl)C(O)C2O)c(=O)n1 (configuration not stated)	2.6µM*	.	.	.	3.7µM*

Pulled by compound from above:
SMILES	TDP1 cell CPT	uPA surface inh	TDP1 inh	miR-21 reporter	TDP1 cell noCPT
O=c1[nH]cnc2c1ncn2[C@@H]1O[C@H](CO)[C@@H](O)[C@H]1O	-9%	3%	5%	2%	17%
O=c1ncccn1[C@@H]1O[C@H](CO)C(O)[C@@H]1O (some centres not stated)	.	.	3%	.	.
Cc1ccc2[nH]c3c(=O)[nH]ncc3c2c1	-2%	6%	.	-25%	-6%
COC(=O)c1c(NC(=O)/C(C#N)=C/c2ccccc2)sc2c1CCC2	8%	.	2%[2.28 µM]	-2%	2%

Other compounds
SMILES	TDP1 cell CPT	uPA surface inh	TDP1 inh	miR-21 reporter	TDP1 cell noCPT
Cc1ccc(S(=O)(=O)CCSc2n[nH]c(=O)n2-c2ccccc2)cc1	1%	-14%	0%	11%	?
CC1CCCN(S(=O)(=O)c2ccc3[nH]c(=O)cc(C(=O)NCCCN4CCCCCC4)c3c2)C1 (configuration not stated)	-29%	.	.	.	?
CC(=O)CC(c1ccccc1)S(=O)(=O)c1ccc([N+](=O)[O-])cc1 (configuration not stated)	-2%	0%	.	1%	2%
N#Cc1cccc(NC(=O)C2CCN(c3ncccn3)CC2)c1	-16%	.	0%	1%	3%
Cc1cccc(CN(C)C[C@H]2OCc3cnnn3CCCC(=O)N([C@@H](C)CO)C[C@@H]2C)c1	2%	.	.	.	-21%
Cc1c(C(=O)NCC(C)(C)N2CCOCC2)cnn1-c1ncc2c(n1)-c1ccccc1CCC2	8%	.	.	.	-4%
